We go through one substance from paper PMC10526199 (Biomolecules, 2023).

For the assay, the target named is T1, recombinant HDAC8 (Homo sapiens, UniProt Q9BY41).
T1 construct: purchased BPS Bioscience Inc
T1 sequence (Q9BY41 1-377): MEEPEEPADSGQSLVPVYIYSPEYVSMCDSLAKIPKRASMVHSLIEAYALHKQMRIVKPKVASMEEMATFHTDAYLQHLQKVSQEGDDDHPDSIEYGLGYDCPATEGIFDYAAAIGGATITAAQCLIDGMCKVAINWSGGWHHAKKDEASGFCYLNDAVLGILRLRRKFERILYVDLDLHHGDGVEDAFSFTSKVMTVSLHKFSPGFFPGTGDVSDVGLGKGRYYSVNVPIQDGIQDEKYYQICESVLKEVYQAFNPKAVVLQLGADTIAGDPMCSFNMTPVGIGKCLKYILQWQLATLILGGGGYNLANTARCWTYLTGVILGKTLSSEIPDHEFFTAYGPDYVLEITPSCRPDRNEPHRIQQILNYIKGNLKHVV
Briefly: HDAC inhibitor enzymatic assay (BPS Bioscience), HDAC8. Type of assay: biochemical. As to conditions: 37 °C for 30 min; read-out: IC50 against HDAC8.

For the substance TSA, the IC50 amounted to 1300 nM.
